Results reported in US20240376056A1, “PHENYL ACETAMIDE BASED IL-17A MODULATORS AND USES THEREOF” (DiCE Alpha, Inc., priority 2021, published 2024).

Chains of the proteins cited; added tags and fusions are not shown. Residues count along the entry.
UniProt Q16552, 24-155 limits assumed: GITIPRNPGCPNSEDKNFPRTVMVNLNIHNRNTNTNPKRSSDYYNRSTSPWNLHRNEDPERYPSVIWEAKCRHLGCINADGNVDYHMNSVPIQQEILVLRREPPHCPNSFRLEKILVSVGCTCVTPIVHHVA

Target: IL-17A/A (Homo sapiens, UniProt Q16552)
Test: HEK-Blue IL-17A/A inhibition assay (SEAP reporter)
Conditions: read-out: IL-17 A/A Inhibition; HEK-Blue cells (HEK 293 expressing IL-17RA, IL-17RC, Act1); IL-17A/A stimulation; 20 hours; SEAP read at A630; 4-parameter fit
Experimental: The HEK-Blue #NC108637 […]. Cells were grown and prepared for assays according to the manufacturer's instructions. This cell line consists of HEK 293 cells that were designed to expressed IL-17R^A, IL-17RC, and the ActI adapter molecule, the combination of which. when stimulated by IL-17A/A activates a NFtcB promoter and drives expression of a recombinant Secreted Alkaline Phosphatase (SEAP) geneprotein. Media from the cells is then added to a development reagent (Quanti-Blue Substrate, Fisher #NC971 1613), and read at A630.
Compounds were titrated in DMSO. with a top final compound concentration of 10 uM, 1 uM, or 0.3 uM, and added to the cells immediately before adding IL-17A/A (Genscript #Z03228). The cells, compound, and IL-17A/A were then incubated for 20 hours before media was removed for SEAP analysis. The resulting inhibition curve was then analyzed using Graphpad Prism 7.0, and IC50 values were determined using a 4-parameter nonlinear fit. DMSO was added to a universal final concentration of 0.1% to optimze background.

CCn1nccc1C(=O)N[C@H](C(=O)Nc1ccc(CC(=O)NC(C(=O)NC)C(F)(F)F)cc1F)C1CCCCCC1 (some centres unmarked)
IC50: 100 to 1000 nM

Cc1cc(NC(=O)[C@@H](NC(=O)c2nonc2C2CC2)C(C2CC2)C2CC2)c(F)cc1C(C)C(=O)N(C)CC(F)(F)F (some centres unmarked)
IC50: < 100 nM
